Measurements from ChEMBL document CHEMBL4382216, “Asymmetric synthesis and biological evaluation of imidazole- and oxazole-containing synthetic lipoxin A4 mimetics (sLXms)” (Eur J Med Chem, 2019).

Tests used:
[1] = biological target: T1, N-formyl peptide receptor 2 (Homo sapiens) (UniProt P25090); experiment: Agonist activity at ALX/FPR2 in human THP1 cells harboring NF-kB-Luc assessed as inhibition of LPS-induced NFkB signalling activation by measuring NF-kB activation level at 10^-12 M pretreated for 30 mins followed by LPS stimulation for 24 hrs by luciferase reporter gene assay; assay type: cell-based; set-up: scale not given: the % may be the effect or the level left
T1 sequence (whole entry): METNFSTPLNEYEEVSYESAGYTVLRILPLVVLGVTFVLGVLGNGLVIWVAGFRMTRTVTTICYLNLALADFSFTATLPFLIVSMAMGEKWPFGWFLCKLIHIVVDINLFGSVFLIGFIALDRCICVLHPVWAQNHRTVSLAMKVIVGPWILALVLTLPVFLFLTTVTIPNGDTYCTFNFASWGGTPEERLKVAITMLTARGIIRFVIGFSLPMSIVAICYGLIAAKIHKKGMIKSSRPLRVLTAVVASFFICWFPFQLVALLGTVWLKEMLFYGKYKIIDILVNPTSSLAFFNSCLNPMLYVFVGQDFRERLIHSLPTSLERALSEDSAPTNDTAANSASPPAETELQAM

[2] = biological target: T1, N-formyl peptide receptor 2 (Homo sapiens); experiment: Agonist activity at ALX/FPR2 in human THP1 cells harboring NF-kB-Luc assessed as inhibition of LPS-induced NFkB signalling activation by measuring IL-12p70 secretion at 10^-9 M pretreated for 30 mins followed by LPS stimulation for 24 hrs by electrochemiluminescence assay; assay type: cell-based; set-up: scale not given: the % may be the effect or the level left
[3] = biological target: T1, N-formyl peptide receptor 2 (Homo sapiens); experiment: Agonist activity at ALX/FPR2 in human THP1 cells harboring NF-kB-Luc assessed as inhibition of LPS-induced NFkB signalling activation by measuring NF-kB activation level at 10^-10 M pretreated for 30 mins followed by LPS stimulation for 24 hrs by luciferase reporter gene assay; assay type: cell-based; set-up: scale not given: the % may be the effect or the level left
[4] = biological target: T1, N-formyl peptide receptor 2 (Homo sapiens); experiment: Agonist activity at ALX/FPR2 in human THP1 cells harboring NF-kB-Luc assessed as inhibition of LPS-induced NFkB signalling activation by measuring NF-kB activation level at 10^-8 M pretreated for 30 mins followed by LPS stimulation for 24 hrs by luciferase reporter gene assay; assay type: cell-based; set-up: scale not given: the % may be the effect or the level left
[5] = biological target: T1, N-formyl peptide receptor 2 (Homo sapiens); experiment: Agonist activity at ALX/FPR2 in human THP1 cells harboring NF-kB-Luc assessed as inhibition of LPS-induced NFkB signalling activation by measuring NF-kB activation level at 10^-9 M pretreated for 30 mins followed by LPS stimulation for 24 hrs by luciferase reporter gene assay; assay type: cell-based; set-up: scale not given: the % may be the effect or the level left
[6] = biological target: T1, N-formyl peptide receptor 2 (Homo sapiens); experiment: Agonist activity at ALX/FPR2 in human THP1 cells harboring NF-kB-Luc assessed as inhibition of LPS-induced NFkB signalling activation by measuring IL-1beta secretion at 10^-9 M pretreated for 30 mins followed by LPS stimulation for 24 hrs by electrochemiluminescence assay; assay type: cell-based; set-up: scale not given: the % may be the effect or the level left
[7] = biological target: T1, N-formyl peptide receptor 2 (Homo sapiens); experiment: Agonist activity at ALX/FPR2 in human THP1 cells harboring NF-kB-Luc assessed as inhibition of LPS-induced NFkB signalling activation by measuring TNFalpha secretion at 10^-9 M pretreated for 30 mins followed by LPS stimulation for 24 hrs by electrochemiluminescence assay; assay type: cell-based; set-up: scale not given: the % may be the effect or the level left
[8] = biological target: T1, N-formyl peptide receptor 2 (Homo sapiens); experiment: Agonist activity at ALX/FPR2 in human THP1 cells harboring NF-kB-Luc assessed as inhibition of LPS-induced NFkB signalling activation by measuring NF-kB activation level at 10^-6 M pretreated for 30 mins followed by LPS stimulation for 24 hrs by luciferase reporter gene assay; assay type: cell-based; set-up: scale not given: the % may be the effect or the level left
[9] = biological target: T1, N-formyl peptide receptor 2 (Homo sapiens); experiment: Agonist activity at ALX/FPR2 in human THP1 cells harboring NF-kB-Luc assessed as inhibition of LPS-induced NFkB signalling activation by measuring IL-6 secretion at 10^-7 M pretreated for 30 mins followed by LPS stimulation for 24 hrs by electrochemiluminescence assay; assay type: cell-based; set-up: scale not given: the % may be the effect or the level left
[10] = biological target: T1, N-formyl peptide receptor 2 (Homo sapiens); experiment: Agonist activity at ALX/FPR2 in human THP1 cells harboring NF-kB-Luc assessed as inhibition of LPS-induced NFkB signalling activation by measuring NF-kB activation level at 10^-11 M pretreated for 30 mins followed by LPS stimulation for 24 hrs by luciferase reporter gene assay; assay type: cell-based; set-up: scale not given: the % may be the effect or the level left
[11] = biological target: T1, N-formyl peptide receptor 2 (Homo sapiens); experiment: Agonist activity at ALX/FPR2 in human THP1 cells harboring NF-kB-Luc assessed as inhibition of LPS-induced NFkB signalling activation by measuring IFNgamma secretion at 10^-11 M pretreated for 30 mins followed by LPS stimulation for 24 hrs by electrochemiluminescence assay; assay type: cell-based; set-up: scale not given: the % may be the effect or the level left
[12] = biological target: T1, N-formyl peptide receptor 2 (Homo sapiens); experiment: Agonist activity at ALX/FPR2 in human THP1 cells harboring NF-kB-Luc assessed as inhibition of LPS-induced NFkB signalling activation by measuring IL-6 secretion at 10^-11 M pretreated for 30 mins followed by LPS stimulation for 24 hrs by electrochemiluminescence assay; assay type: cell-based; set-up: scale not given: the % may be the effect or the level left
[13] = biological target: T1, N-formyl peptide receptor 2 (Homo sapiens); experiment: Agonist activity at ALX/FPR2 in human THP1 cells harboring NF-kB-Luc assessed as inhibition of LPS-induced NFkB signalling activation by measuring IL-1beta secretion at 10^-11 M pretreated for 30 mins followed by LPS stimulation for 24 hrs by electrochemiluminescence assay; assay type: cell-based; set-up: scale not given: the % may be the effect or the level left
[14] = biological target: T1, N-formyl peptide receptor 2 (Homo sapiens); experiment: Agonist activity at ALX/FPR2 in human THP1 cells harboring NF-kB-Luc assessed as inhibition of LPS-induced NFkB signalling activation by measuring IL-12p70 secretion at 10^-7 M pretreated for 30 mins followed by LPS stimulation for 24 hrs by electrochemiluminescence assay; assay type: cell-based; set-up: scale not given: the % may be the effect or the level left
[15] = biological target: T1, N-formyl peptide receptor 2 (Homo sapiens); experiment: Agonist activity at ALX/FPR2 in human THP1 cells harboring NF-kB-Luc assessed as inhibition of LPS-induced NFkB signalling activation by measuring NF-kB activation level at 10^-7 M pretreated for 30 mins followed by LPS stimulation for 24 hrs by luciferase reporter gene assay; assay type: cell-based; set-up: scale not given: the % may be the effect or the level left
[16] = biological target: T1, N-formyl peptide receptor 2 (Homo sapiens); experiment: Agonist activity at ALX/FPR2 in human THP1 cells harboring NF-kB-Luc assessed as inhibition of LPS-induced NFkB signalling activation by measuring IL-6 secretion at 10^-9 M pretreated for 30 mins followed by LPS stimulation for 24 hrs by electrochemiluminescence assay; assay type: cell-based; set-up: scale not given: the % may be the effect or the level left
[17] = biological target: T1, N-formyl peptide receptor 2 (Homo sapiens); experiment: Agonist activity at ALX/FPR2 in human THP1 cells harboring NF-kB-Luc assessed as inhibition of LPS-induced NFkB signalling activation by measuring IL-1beta secretion at 10^-7 M pretreated for 30 mins followed by LPS stimulation for 24 hrs by electrochemiluminescence assay; assay type: cell-based; set-up: scale not given: the % may be the effect or the level left
[18] = biological target: T1, N-formyl peptide receptor 2 (Homo sapiens); experiment: Agonist activity at ALX/FPR2 in human THP1 cells harboring NF-kB-Luc assessed as inhibition of LPS-induced NFkB signalling activation by measuring IL-12p70 secretion at 10^-11 M pretreated for 30 mins followed by LPS stimulation for 24 hrs by electrochemiluminescence assay; assay type: cell-based; set-up: scale not given: the % may be the effect or the level left
[19] = biological target: T1, N-formyl peptide receptor 2 (Homo sapiens); experiment: Agonist activity at ALX/FPR2 in human THP1 cells harboring NF-kB-Luc assessed as inhibition of LPS-induced NFkB signalling activation by measuring IFNgamma secretion at 10^-9 M pretreated for 30 mins followed by LPS stimulation for 24 hrs by electrochemiluminescence assay; assay type: cell-based; set-up: scale not given: the % may be the effect or the level left
[20] = biological target: T1, N-formyl peptide receptor 2 (Homo sapiens); experiment: Agonist activity at ALX/FPR2 in human THP1 cells harboring NF-kB-Luc assessed as inhibition of LPS-induced NFkB signalling activation by measuring TNFalpha secretion at 10^-7 M pretreated for 30 mins followed by LPS stimulation for 24 hrs by electrochemiluminescence assay; assay type: cell-based; set-up: scale not given: the % may be the effect or the level left
[21] = biological target: T1, N-formyl peptide receptor 2 (Homo sapiens); experiment: Agonist activity at ALX/FPR2 in human THP1 cells harboring NF-kB-Luc assessed as inhibition of LPS-induced NFkB signalling activation by measuring TNFalpha secretion at 10^-11 M pretreated for 30 mins followed by LPS stimulation for 24 hrs by electrochemiluminescence assay; assay type: cell-based; set-up: scale not given: the % may be the effect or the level left
[22] = biological target: T1, N-formyl peptide receptor 2 (Homo sapiens); experiment: Agonist activity at ALX/FPR2 in human THP1 cells harboring NF-kB-Luc assessed as inhibition of LPS-induced NFkB signalling activation by measuring IFNgamma secretion at 10^-7 M pretreated for 30 mins followed by LPS stimulation for 24 hrs by electrochemiluminescence assay; assay type: cell-based; set-up: scale not given: the % may be the effect or the level left
[23] = biological target: T1, N-formyl peptide receptor 2 (Homo sapiens); experiment: Agonist activity at ALX/FPR2 (unknown origin) expressed in HEK293 cells co-expressing Galphaq assessed as induction of intracellular calcium accumulation at 0.01 nM to 100 nM by Fluo-4 dye based fluorescence spectrophotometric assay; assay type: functional, cell-based
Homo sapiens = organism: Homo sapiens; experiment: Activation of Luc-fused NFkB (unknown origin) expressed in non-stimulated human THP1 cells assessed as relative luminescence unit at 10^-8 M after 24 hrs by luciferase reporter gene assay (reference value: 100%); assay type: cell-based

SMILES: CCCCC[C@@H](O)c1nc(-c2ccccc2)oc1/C=C/[C@@H](O)[C@@H](O)CCCC(=O)OC(C)C
- Activity [1]: 92%
- Activity [2]: 231%
- Activity [3]: 100%
- Activity [4]: 89.7%
- Activity [5]: 99%
- Activity [6]: 284%
- Activity [7]: 90.1%
- Activity [8]: 85.9%
- Activity [9]: 84.8%
- Activity [10]: 95.3%
- Activity [11]: 222%
- Activity [12]: 107%
- Activity [13]: 275%
- Activity [14]: 126%
- Activity [15]: 91.5%
- Activity [16]: 115%
- Activity [17]: 89.7%
- Activity [18]: 76.4%
- Activity [19]: 315%
- Activity [20]: 67.9%
- Activity [21]: 81.2%
- Activity [22]: 156%

SMILES: CCCCC[C@@H](O)c1c(/C=C/[C@@H](O)[C@@H](O)CCCC(=O)OC)nc(C)n1C
- Activity [1]: 56.2%
- Activity [2]: 80.7%
- Activity [3]: 86.9%
- Activity [4]: 102%
- Activity [5]: 97.7%
- Activity [6]: 95%
- Activity [7]: 91.2%
- Activity [8]: 94.2%
- Activity [9]: 87.9%
- Activity [10]: 58.7%
- Activity [23]: Active
- Activity [11]: 87.7%
- Activity [12]: 95.4%
- Activity [13]: 117%
- Activity [14]: 73.1%
- Activity [15]: 92%
- Activity [16]: 93.1%
- Activity [17]: 98.1%
- Activity [18]: 94.3%
- Activity [19]: 86.1%
- Activity [20]: 82.1%
- Activity [21]: 106%
- Activity [22]: 63.3%

SMILES: CCC[C@H](O)c1c(/C=C/[C@@H](O)[C@@H](O)CCCC(=O)OC)nc(C)n1C
- Activity [1]: 81.8%
- Activity [2]: 87.4%
- Activity [3]: 81.8%
- Activity [4]: 75.9%
- Activity [5]: 78.6%
- Activity [6]: 105%
- Activity [7]: 108%
- Activity [8]: 90.2%
- Activity [9]: 110%
- Activity [10]: 80.4%
- Activity [11]: 50.9%
- Activity [12]: 123%
- Activity [13]: 117%
- Activity [14]: 90.2%
- Activity [15]: 78.1%
- Activity [16]: 120%
- Activity [17]: 61.7%
- Activity [18]: 114%
- Activity [19]: 50.4%
- Activity [20]: 91.9%
- Activity [21]: 103%
- Activity [22]: 54.4%

SMILES: CCCCC[C@H](O)c1c(/C=C/[C@@H](O)[C@@H](O)CCCC(=O)OC)nc(C)n1C
- Activity [1]: 92.7%
- Activity [2]: 45%
- Activity [3]: 83%
- Activity [4]: 90.9%
- Activity [5]: 88.6%
- Activity [6]: 69.2%
- Activity (Homo sapiens): 4.5%
- Activity [7]: 63.7%
- Activity [8]: 76.1%
- Activity [9]: 74.1%
- Activity [10]: 82.5%
- Activity [11]: 56%
- Activity [12]: 92.6%
- Activity [13]: 96.4%
- Activity [14]: 68.3%
- Activity [15]: 80.5%
- Activity [16]: 70.9%
- Activity [17]: 35.1%
- Activity [18]: 60.2%
- Activity [19]: 44.2%
- Activity [20]: 57.1%
- Activity [21]: 83%
- Activity [22]: 51.1%

Calls of active or inactive are those of the source. No cut-off for these calls is given here.
